## Yeast mating assay B: variants of the scFv Ab-14

Antigen: PDVDLGDISGINAS, a 14-residue peptide of the SARS-CoV-2 spike HR2 region.

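Designed CDR sequences, proposed from the first random library and measured here. Their group label is 14L_Ctrl (Ctrl: baseline library sampled from a position-specific scoring matrix, with some repeated check sequences). AlphaSeq pools MATa yeast showing the antibodies with MATalpha yeast showing the peptide. The frequency of each diploid, read from paired DNA barcodes, reflects how well the two displayed proteins bind. Read counts were normalised to the haploid input and turned into Kd by a linear fit to BCL2-family pairs of known affinity, for each replicate. There are six technical replicates.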

Each scFv is VH, a (GGGGS)3 linker, VL, as in the parent Ab-14, and differs from it in the CDRs of the light chain only.
VH: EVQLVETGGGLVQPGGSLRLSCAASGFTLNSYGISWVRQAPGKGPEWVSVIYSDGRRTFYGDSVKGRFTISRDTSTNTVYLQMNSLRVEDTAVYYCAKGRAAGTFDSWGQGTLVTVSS
VL: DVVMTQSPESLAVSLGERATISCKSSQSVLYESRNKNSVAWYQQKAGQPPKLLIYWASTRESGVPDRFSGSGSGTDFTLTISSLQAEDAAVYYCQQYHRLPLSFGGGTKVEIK

Positions count from residue 1 of the parent VL; S25D puts D in place of S. Values are log10 of the apparent Kd in nM; lower means stronger binding. The mean shown is taken over the replicates in which the pair was detected. "n.d." marks a missing value. The strain was present, yet no cells mated with the target were sequenced in that replicate, which points to weak or no binding. A sequence measured in both rounds can read differently, since the two assays cover different ranges. Some sequences occur more than once in the pool; their replicates are listed entry by entry, parted by semicolons. The authors' rule: three or more of the six replicates give a measured affinity, fewer mean a poor binder. Background: pairings of all light chain designs with three empty control strains gave a value in 4% of cases (median 2.64, 5th percentile 1.59). Values in that range, when seen in few replicates, are hard to tell from nonspecific mating. For each scFv, signals with the empty controls are counted beside the result, with their mean in brackets. The parent sequence was in this pool as ten entries: three were never detected, three once, and four in most replicates, with averages from 0.34 to 2.37.

changes	log10 Kd, replicates	mean log10 Kd (nM)	signal with controls
S25D/S38M/L100E	n.d. 2.25 n.d. n.d. n.d. n.d.	2.25	0/18
S25P/S28G/W56R	0.81 1.24 1.78 1.02 0.96 0.85	1.11	0/18
E32N/N35H/Q95G/Y97C/H98Q/S103C	n.d. n.d. n.d. n.d. n.d. n.d.	n.d.	0/18
V29P/R34T/S58M	1.71 n.d. 1.54 n.d. 2.12 n.d.	1.79	1/18 (2.39)
S25L/S103C	-0.15 0.65 -0.35 0.02 0.44 -0.12	0.08	0/18
L30R/Y31Q/E32L/N35H/E61P	n.d. n.d. n.d. n.d. n.d. n.d.	n.d.	2/18 (1.82)
K24M/S26C/R34G/P101W	n.d. n.d. n.d. n.d. n.d. n.d.	n.d.	0/18
L30D/E32T/W56G/S62E/H98R	0.18 0.06 0.16 -0.04 0.28 0.04	0.11	2/18 (2.27)
S28N/W56S	0.69 0.13 0.94 1.01 0.54 0.60	0.65	1/18 (2.90)
S33R/R34E	1.39 3.50 1.32 1.03 1.64 1.83	1.78	0/18
W56N/S103G	1.34 0.79 0.57 0.90 0.46 0.71	0.80	0/18
S25L/K36A	0.46 0.50 0.25 0.17 0.32 0.43	0.36	0/18
L30P/Y31D/L100F/L102I	n.d. n.d. n.d. n.d. n.d. n.d.	n.d.	1/18 (1.98)
K24M/S25D/S26E/R34C/Q96V/R99V	n.d. n.d. n.d. n.d. n.d. n.d.	n.d.	0/18
Y31E/N35E	1.61 0.47 0.72 0.23 0.42 0.96	0.73	0/18
L30V/N35E/S38N/W56Q/S62E/Y97H	n.d. n.d. n.d. n.d. n.d. n.d.	n.d.	0/18
S25I/R34M/W56E/P101E/L102W/S103F	n.d. n.d. n.d. n.d. n.d. n.d.	n.d.	0/18
S25I/W56G/L102N	2.51 2.18 3.04 2.60 2.33 2.46	2.52	0/18
R34P/N35F	1.71 0.98 1.59 1.83 2.52 1.51	1.69	3/18 (2.94)
S26M/L30F/R34E/S103P	n.d. 1.12 n.d. n.d. n.d. n.d.; 1.15 1.28 0.88 1.21 0.28 1.31; n.d. n.d. n.d. n.d. n.d. n.d.; 1.59 n.d. n.d. n.d. 1.97 3.23; 2.73 n.d. 2.42 2.23 n.d. 1.10	1.61	2/90 (1.63)
L30I/S33D/R34E/W56E/L100Y	1.36 2.60 1.84 2.38 2.02 2.65	2.14	2/18 (2.29)
S25F/E32P/W56T	0.99 0.50 0.71 0.76 0.60 0.85	0.73	0/18
W56A/S103T	n.d. n.d. n.d. n.d. 3.29 n.d.	3.29	0/18
S62Y/H98Y	2.22 1.58 1.64 5.11 n.d. 1.71	2.45	1/18 (2.07)
S25F/V29F/S38C/W56K/E61A	1.56 1.15 1.23 1.13 1.25 1.29	1.27	3/18 (3.01)
S28K/T59L/S103Y	n.d. 1.77 n.d. n.d. n.d. n.d.	1.77	0/18
Q27V/Y97T	n.d. n.d. n.d. n.d. n.d. n.d.	n.d.	0/18
W56Y/S62T	1.45 0.96 2.32 n.d. 3.11 1.19	1.81	0/18
K24R/S28G	n.d. 2.32 n.d. n.d. n.d. n.d.	2.32	1/18 (1.98)
R34F/H98Q	1.36 1.34 1.18 1.17 1.68 1.43	1.36	1/18 (1.52)
W56G/L102E	n.d. n.d. 3.73 n.d. n.d. 1.70	2.71	1/18 (2.04)
Y31E/A40S/W56H	0.59 0.46 0.34 1.16 0.34 0.38	0.54	2/18 (2.60)

From the AlphaSeq antibody data of Li et al. 2023 (doi:10.1038/s41467-023-39022-2), copy in the FLAb collection.